Data as given in article PMC6712002, “Comprehensive in vitro characterization of PD-L1 small molecule inhibitors” (Scientific Reports, 2019).
Bridge positions count the residues as written; N and C are the ends. Square brackets hold non-standard residues; d marks the D form. Peptide text beside a SMILES is read from it. NMeNle = CCCC[C@H](NC)C(=O)O; NMeA = CN[C@@H](C)C(=O)O

Amino acid sequences for entries named in this document (tags omitted). Residues count along the entry.
UniProt Q9NZQ7, 18-134: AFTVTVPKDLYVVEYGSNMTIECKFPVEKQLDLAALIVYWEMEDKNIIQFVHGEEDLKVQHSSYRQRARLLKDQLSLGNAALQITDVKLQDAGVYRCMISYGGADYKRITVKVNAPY

Assays:
[1] = target: T1, PD-L1 (Homo sapiens, UniProt Q9NZQ7); assay: Differential scanning fluorimetry (DSF) of PD-L1; type: binding; conditions: PD-L1 10 µM, compound 50 µM
T1 construct: human PD-L1 (residues 18–134) was cloned into pET21b vector; made in house

[2] = target: Fc-PD-L1 (Homo sapiens, UniProt Q9NZQ7); assay: SPR binding to captured Fc-PD-L1; conditions: Fc-PD-L1 captured on Protein A chip, 25 °C
[3] = target: T2, Fc-B7-1 (Homo sapiens, UniProt P33681); assay: SPR binding to captured Fc-B7-1 (specificity)
T2 sequence (P33681 35-242 limits assumed): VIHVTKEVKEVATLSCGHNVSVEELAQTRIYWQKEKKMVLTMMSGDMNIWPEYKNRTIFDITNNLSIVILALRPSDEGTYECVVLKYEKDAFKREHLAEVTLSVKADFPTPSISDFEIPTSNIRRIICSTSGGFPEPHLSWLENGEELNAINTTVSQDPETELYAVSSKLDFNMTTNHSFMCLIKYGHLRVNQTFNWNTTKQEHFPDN

[4] = system: PD-1/NFAT reporter Jurkat cells co-cultured with TCR activator/PD-L1-CHO cells; assay: Bioluminescent PD-1/PD-L1 cell-based assay (NFAT luciferase reporter)

- shift of Tm of PD-L1 [1]: 18 ± 0.7 °C
- Rmax (maximum binding response) [2]: 30.58 ± 6.24 RU
SMILES: CCCC[C@H]1C(=O)N(C)[C@@H](CCCC)C(=O)N[C@@H](CCCNC(=N)N)C(=O)N[C@H](C(=O)NCC(N)=O)CSCC(=O)N[C@@H](Cc2ccccc2)C(=O)N(C)[C@@H](C)C(=O)N[C@@H](CC(N)=O)C(=O)N2CCC[C@H]2C(=O)N[C@@H](Cc2c[nH]cn2)C(=O)N[C@@H](CC(C)C)C(=O)N[C@@H](CO)C(=O)N[C@@H](Cc2c[nH]c3ccccc23)C(=O)N[C@@H](CO)C(=O)N[C@@H](Cc2c[nH]c3ccccc23)C(=O)N1C [BMSpep-57] ({CH2CO}-F[NMeA]NPHLSWSW[NMeNle][NMeNle]RCG-NH2; thioether N-14; N-terminus and C-terminus assumed)
- binding with captured Fc-B7-1 [3]: None of the BMS inhibitors (BMSpep-57, BMS-103 and BMS-142) showed binding
- fold NFAT luminescence vs cells only ([4]; 250 nM and 125 nM): ~ 2 fold
- fold NFAT luminescence vs cells only ([4]; 1 μM and 500 nM): ~ 3 fold
